Laboratory results taken from patent US9018162B2, “Methods for rapidly treating severe hypoglycemia” (Xeris Pharmaceuticals, Inc., priority 2013, dated 2015).

Experiment: Effect of pH on insulin solubility in DMSO (visual, A630)
Format: physicochemical
Description: Insulin was dissolved in H2O at 10 mg/mL with a 10 mM phosphate/citrate-1 mM EDTA buffer at either pH 2 or pH 7. These solutions were lyophilized to dryness ([…]) using a conservative cycle and reconstituted to various nominal concentrations in DMSO. Solubility was measured by visual inspection for clarity and turbidity via A630.

Substance: insulin
- solubility in DMSO (pH memory of 7, lowest concentration tested 10 mg/mL): poor solubility
- solubility in DMSO (pH of 2): at least 100 mg/mL
